{
  "source": "paper PMC8166750",
  "about": "(The Journal of Biological Chemistry, 2021)",
  "target": "T1, zfP2X4^r-beak (Danio rerio, UniProt F8W463, A142T/D145S/F139S/G144S/K136T/N140V/R137P/R143H/R148A)",
  "T1 sequence (F8W463 1-389 K136T/R137P/F139S/N140V/A142T/R143H/G144S/D145S/R148A)": "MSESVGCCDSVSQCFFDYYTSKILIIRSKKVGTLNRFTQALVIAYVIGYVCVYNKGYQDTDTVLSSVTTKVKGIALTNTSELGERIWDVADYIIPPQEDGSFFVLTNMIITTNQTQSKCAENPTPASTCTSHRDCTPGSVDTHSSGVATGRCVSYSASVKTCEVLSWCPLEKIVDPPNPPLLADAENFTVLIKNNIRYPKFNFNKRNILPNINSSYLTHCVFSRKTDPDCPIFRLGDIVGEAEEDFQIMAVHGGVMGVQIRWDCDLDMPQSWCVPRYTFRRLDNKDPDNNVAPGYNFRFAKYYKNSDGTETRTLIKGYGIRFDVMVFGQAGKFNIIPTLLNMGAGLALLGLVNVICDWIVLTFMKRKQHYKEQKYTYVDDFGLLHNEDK",
  "assay": "ATP concentration-response, chimera, perforated patch clamp in HEK293 cells",
  "assay_type": "cell-based, zebrafish (Danio rerio)",
  "conditions": "EC50 of ATP, chimera zfP2X4^r-beak (residues 136–148 replaced)",
  "data": [
    {"compound": "Nc1ncnc2c1ncn2[C@@H]1O[C@H](COP(=O)(O)OP(=O)(O)OP(=O)(O)O)[C@@H](O)[C@H]1O", "note": "[ATP]", "values": [
      {"measurement": "EC50", "value": "122 ± 11.5", "unit": "µM"}
    ]}
  ]
}
